The values below are quoted from earlier work in patent US20220211662A1, “METHOD OF TREATING CANCER BY ADMINISTERING AN EPIGALLOCATECHIN GALLATE COMBINED WITH TYROSINE KINASE INHIBITOR” (Yunnan Daye Dihong Biotechnology Co., Ltd., priority 2019, published 2022).

For this data set, the system named is EGFR tumor patients. As to conditions: cited from earlier work.

Molecules are shown by their SMILES.

Regarding `COc1cc2ncnc(Nc3ccc(F)c(Cl)c3)c2cc1OCCCN1CCOCC1` [Gefitinib], the clinical effect entry (patient with highly activated EGFR) was “no significant effect”. Further, the effective rate (patients with EGFR L858R mutation) is listed as at most 80%.
